{
  "source": "paper PMC7579404",
  "about": "“A Novel KPC Variant KPC-55 in Klebsiella pneumoniae ST307 of Reinforced Meropenem-Hydrolyzing Activity” (Frontiers in Microbiology, 2020)",
  "test_in_all_cases": "purified protein",
  "conditions_in_all_cases": "50 mM morpholinepropanesulfonic acid pH 7.0, 50 mM NaCl, 100 mM sodium phosphate pH 7.0, 30°C",
  "key": {"[1]": {"system": "CC1(C)S[C@@H]2[C@H](NC(=O)[C@H](N)c3ccccc3)C(=O)N2[C@H]1C(=O)O", "format": "biochemical, Klebsiella pneumoniae"}, "[2]": {"system": "C[C@@H](O)[C@H]1C(=O)N2C(C(=O)O)=C(SCCN=CN)C[C@H]12"}, "[3]": {"system": "C[C@H]1[C@H](NC(=O)/C(=N\\OC(C)(C)C(=O)O)c2csc(N)n2)C(=O)N1S(=O)(=O)O"}},
  "data": [
    {"substance": "KPC-2 (and its variant KPC-55 = KPC-2 Y264N) (Klebsiella pneumoniae)", "values": [
      {"measurement": "Km", "setting": "[1]", "value": "1.03 ± 0.38", "unit": "µM"},
      {"measurement": "kcat", "setting": "[1]", "value": "5.31 ± 2.8", "unit": "s⁻¹"},
      {"measurement": "kcat/Km", "setting": "[1]", "value": "4.98e+06 ± 770000", "unit": "M⁻¹ s⁻¹"}
    ]},
    {"substance": "KPC-2 (and its variant KPC-55 = KPC-2 Y264N) (Klebsiella pneumoniae; Y262N)", "values": [
      {"measurement": "Km", "setting": "[2]", "value": "0.13 ± 0.002", "unit": "µM"},
      {"measurement": "kcat", "setting": "[2]", "value": 1.99, "unit": "s⁻¹"},
      {"measurement": "kcat/Km", "setting": "[2]", "value": "1.51e+07", "unit": "M⁻¹ s⁻¹"},
      {"measurement": "Km", "setting": "[3]", "value": "1.50 ± 0.31", "unit": "µM"},
      {"measurement": "kcat", "setting": "[3]", "value": 27.9, "unit": "s⁻¹"},
      {"measurement": "kcat/Km", "setting": "[3]", "value": "1.86e+07", "unit": "M⁻¹ s⁻¹"}
    ]}
  ]
}
